Amino acid sequences for entries named in this document (tags omitted). Residues count along the entry.
UniProt P06276, 29-602: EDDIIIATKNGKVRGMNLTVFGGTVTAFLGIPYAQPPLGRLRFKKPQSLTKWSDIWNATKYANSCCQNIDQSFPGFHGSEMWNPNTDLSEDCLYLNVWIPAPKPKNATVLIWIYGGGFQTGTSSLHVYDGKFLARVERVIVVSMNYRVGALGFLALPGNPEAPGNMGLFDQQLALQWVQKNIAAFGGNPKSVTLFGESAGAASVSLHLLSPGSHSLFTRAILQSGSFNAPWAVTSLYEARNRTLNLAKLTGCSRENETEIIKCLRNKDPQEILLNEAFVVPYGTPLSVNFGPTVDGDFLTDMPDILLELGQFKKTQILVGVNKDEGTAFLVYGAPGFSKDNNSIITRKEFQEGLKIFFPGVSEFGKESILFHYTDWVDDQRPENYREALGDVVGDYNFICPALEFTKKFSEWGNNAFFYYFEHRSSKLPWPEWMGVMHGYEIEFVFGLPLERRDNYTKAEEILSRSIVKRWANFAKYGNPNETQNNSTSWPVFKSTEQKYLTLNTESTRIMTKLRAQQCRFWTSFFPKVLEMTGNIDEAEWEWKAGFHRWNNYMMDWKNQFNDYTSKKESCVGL

According to publication PMC6009985, “Structure–activity relationship investigation of benzamide and picolinamide derivatives containing dimethylamine side chain as acetylcholinesterase inhibitors” (Journal of Enzyme Inhibition and Medicinal Chemistry, 2017):

Biological target: BChE (Homo sapiens, UniProt P06276)
Assay type: biochemical
Details: Ellman method, 30 °C, 25 min, pH 8.0; mean ± SD
Protocol: AChE/BChE activity assays were carried out by Ellman method with slight modification. Each compound was dissolved in Tween 80 and diluted with water to various concentrations immediately before use. The assay solution which contained 40 μL AChE/BChE, 100 μL acetylthiocholine iodide/S-butyrylthiocholine iodide, 2.76 ml Na2HPO4/NaH2PO4 buffer (pH 8.0, 0.1 M), and 100 μL tested compound solution with different concentrations were incubated at 30 °C for 25 min. Then, the reaction was terminated with 100 μL 20% sodium dodecylsulphate (SDS), then 100 μL 10 mM […] (DTNB) as chromogenic agent was added into the mixture. […] The IC50 values were calculated by Bliss method and expressed as Mean ± SD of the replicates.

**Q.** CCN(C)C(=O)Oc1cccc([C@H](C)N(C)C)c1 [Rivastigmine, reference compound] was tested. Which IC50 did it give?
**A.** Its IC50 is 0.26 ± 0.08 µM.
